Experimental data: patent publication US20200369728A1, “PEPTIDOMIMETIC MACROCYCLES AND USES THEREOF” (Aileron Therapeutics, Inc., priority 2015, published 2020)

System: p21
Assay: p21 ELISA assay in SJSA1 cells
Assay type: cell-based, human
Design: unit not given here

## CC(=O)N[C@@H](CC(C)C)C(=O)N[C@H](C(=O)N[C@@H](Cc1ccccc1)C(=O)N[C@]1(C)CCCCCCC=CCCC[C@@](C)(C(=O)N[C@@H](C)C(=O)N[C@@H](C)C(=O)N[C@@H](C)C(=O)N[C@@H](C)C(=O)N[C@@H](C)C(=O)N[C@@H](C)C(=O)N[C@H](C)C(N)=O)NC(=O)[C@H](CC(C)C)NC(=O)[C@H](CCC(N)=O)NC(=O)[C@H](C)NC(=O)[C@H](Cc2c[nH]c3ccccc23)NC(=O)[C@H](Cc2ccc(O)cc2)NC(=O)[C@H](C)NC1=O)[C@@H](C)O (single isomer, unassigned) [compound 317]
  p21 0.3 μM: 551
  p21 1 μM: 624
  p21 3 μM: 776
  p21 10 μM: 1367
  p21 30 μM: 1076

## CC(=O)N[C@@H](CC(C)C)C(=O)N[C@H](C(=O)N[C@@H](Cc1ccccc1)C(=O)N[C@]1(C)CCCCCCC=CCCC[C@@](C)(C(=O)N[C@@H](C)C(=O)N[C@@H](C)C(=O)N[C@@H](C)C(=O)N[C@H](C)C(N)=O)NC(=O)[C@H](CC(C)C)NC(=O)[C@H](CCC(N)=O)NC(=O)[C@H](C)NC(=O)[C@H](Cc2c[nH]c3ccccc23)NC(=O)[C@H](Cc2ccc(O)cc2)NC(=O)[C@H](C)NC1=O)[C@@H](C)O (single isomer, unassigned) [compound 230]
  p21 0.3 μM: 245.5
  p21 1 μM: 392
  p21 3 μM: 882
  p21 10 μM: 1549
  p21 30 μM: 2086

## CC(=O)N[C@@H](CC(C)C)C(=O)N[C@H](C(=O)N[C@@H](Cc1ccccc1)C(=O)N[C@]1(C)CCCCCCC=CCCC[C@@](C)(C(=O)N[C@@H](CO)C(=O)N[C@@H](C)C(=O)N[C@@H](CC(C)C)C(N)=O)NC(=O)[C@H](CC(C)C)NC(=O)[C@H](CCC(N)=O)NC(=O)[C@H](C)NC(=O)[C@H](Cc2c[nH]c3ccccc23)NC(=O)[C@H](Cc2ccc(O)cc2)NC(=O)[C@H](C)NC1=O)[C@@H](C)O [compound 4]
  p21 3 μM: 317
  p21 10 μM: 3049
  p21 30 μM: 3257

## CC(=O)N[C@@H](C)C(=O)N[C@@H](C)C(=O)N[C@@H](CC(C)C)C(=O)N[C@H](C(=O)N[C@@H](Cc1ccccc1)C(=O)N[C@]1(C)CCCCCCC=CCCC[C@@](C)(C(=O)N[C@@H](CO)C(=O)N[C@@H](C)C(=O)N[C@@H](C)C(=O)N[C@@H](C)C(=O)N[C@H](C)C(N)=O)NC(=O)[C@H](CC2CCC2)NC(=O)[C@H](CCC(N)=O)NC(=O)[C@H](C)NC(=O)[C@H](Cc2c[nH]c3ccccc23)NC(=O)[C@H](Cc2ccc(O)cc2)NC(=O)[C@H](CCC(=O)O)NC1=O)[C@@H](C)O (single isomer, unassigned) [compound 358]
  p21 0.3 μM: 252
  p21 1 μM: 321
  p21 3 μM: 434
  p21 10 μM: 609
  p21 30 μM: 1192

## CC(=O)N[C@@H](CC(C)C)C(=O)N[C@H](C(=O)N[C@@H](Cc1ccccc1)C(=O)N[C@]1(C)CCCCCCC=CCCC[C@@](C)(C(=O)N[C@@H](C)C(=O)N[C@H](C(=O)NCC(N)=O)C(C)C)NC(=O)[C@H](CC(C)C)NC(=O)[C@H](CCC(N)=O)NC(=O)[C@H](C)NC(=O)[C@H](Cc2c[nH]c3ccccc23)NC(=O)[C@H](Cc2ccc(O)cc2)NC(=O)[C@H](C)NC1=O)[C@@H](C)O (single isomer, unassigned) [compound 109]
  p21 1 μM: 161
  p21 3 μM: 445
  p21 10 μM: 1221
  p21 30 μM: 1680
